The text below walks through data of US6979686B1, “Substituted pyrazoles as p38 kinase inhibitors” (Pharmacia Corporation, priority 2001, dated 2005).

Amino acid sequences for entries named in this document (tags omitted).
UniProt Q16539, whole entry: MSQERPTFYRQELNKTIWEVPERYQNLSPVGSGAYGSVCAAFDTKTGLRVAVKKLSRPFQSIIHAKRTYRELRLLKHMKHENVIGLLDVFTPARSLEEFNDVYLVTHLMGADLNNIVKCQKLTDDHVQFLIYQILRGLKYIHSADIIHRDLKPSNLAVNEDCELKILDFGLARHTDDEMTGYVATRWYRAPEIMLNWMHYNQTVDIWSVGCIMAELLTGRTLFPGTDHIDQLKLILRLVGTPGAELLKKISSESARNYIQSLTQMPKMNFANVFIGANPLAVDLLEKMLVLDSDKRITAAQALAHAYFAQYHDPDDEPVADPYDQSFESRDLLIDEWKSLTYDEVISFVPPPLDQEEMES

The test deals with T1, human p38 kinase alpha (Homo sapiens, UniProt Q16539).
T1 construct: GST (N, cleaved yes); made in house; host or cells: E. coli DH10B
Nature of the test: p38 kinase in vitro assay, phosphorylation of biotinylated PHAS-I with 32P-ATP. The following applies: in vitro P38-alpha kinase inhibition. Type of test: biochemical. On the procedure:
The coding region of the human p38a cDNA was obtained by PCR-amplification from RNA isolated from the human monocyte cell line THP.1. […] Random primer, dNTP's and Superscript™ reagents were all purchased from Life-Technologies, Gaithersburg, Mass. The reaction was incubated at 42° C. for 1 hour. Amplification of p38 cDNA was performed by aliquoting 5 μl of the reverse transcriptase reaction into a 100 μl PCR reaction containing the following: 80 μl dH2O, 2 μl 50 mM DNTP's, 1 μl each of forward and reverse primers (50 pmol/μl), 10 μl of 10×buffer and 1 μl Expand™ polymerase (Boehringer Mannheim). The PCR primers incorporated BamHI sites onto the 5′ and 3′ end of the amplified fragment, and were purchased from Genosys. […] The PCR amplification was carried out in a DNA Thermal Cycler (Perkin Elmer) by repeating 30 cycles of 94° C. for 1 minute, 60° C. for 1 minute and 68° C. for 2 minutes. After amplification, excess primers and unincorporated dNTP's were removed from the amplified fragment with a Wizard™ PCR prep (Promega) and digested with BamHI (New England Biolabs). […]
Overnight cultures were grown in-Luria Broth (LB) containing […] ampicillin. The next day, 500 ml of fresh LB was inoculated with 10 ml of overnight culture, and grown in a 2 liter flask at 37° C. with constant shaking until the culture reached an absorbance of 0.8 at 600 nm. […]

pIC50: −log10 of the molar value.

In general, pIC50 refers to the IC50 on a negative log10 scale, so that one unit is a factor of ten. Low values mean a high IC50, high ones a low IC50. Molecule `CC(NC(=O)c1cccc2ccccc12)c1[nH]nc(-c2ccc(F)cc2)c1-c1ccncc1` (stereo not shown) [Example B-0677] gave a pIC50 of 5.79.
